Assay results reported in US6511827B1 (Merck & Co., Inc., priority 1997, dated 2003).

Chains of the proteins cited; added tags and fusions are not shown. Lines headed by an entry give the natural chain unless they say otherwise; changes in a name come on top.
UniProt P47211: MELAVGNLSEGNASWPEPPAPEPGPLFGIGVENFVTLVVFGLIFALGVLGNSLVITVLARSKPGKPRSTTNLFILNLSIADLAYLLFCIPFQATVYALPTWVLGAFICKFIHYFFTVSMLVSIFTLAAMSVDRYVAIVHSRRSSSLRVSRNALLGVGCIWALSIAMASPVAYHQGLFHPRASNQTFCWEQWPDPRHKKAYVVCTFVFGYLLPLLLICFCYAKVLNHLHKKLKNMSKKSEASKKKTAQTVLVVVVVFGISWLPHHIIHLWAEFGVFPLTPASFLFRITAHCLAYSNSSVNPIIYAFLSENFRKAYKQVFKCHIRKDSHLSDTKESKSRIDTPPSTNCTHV

Columns and labels:
GALR1 = target: T1, GALR1 (Homo sapiens, UniProt P47211); conditions: GALR1 transiently expressed in COS cells; cited from earlier work
T1 construct: host or cells: COS cells, transient expression (cited work)

human GALR3 [1] = test: Specific binding of ^125I-galanin radioligands to membranes of COS-7 cells transfected with GALR3 clones, as a function of membrane protein
Experimental: (§1) Mammalian COS-7 cells were transfected by electroporation. COS-7 cells (1×10^7) were suspended in 0.85 ml of Ringers' buffer and […] of the GALR3-2 or GALR3—3 expression plasmid was added to a 0.4 mm electroporation cuvette (Bio-Rad, Hercules, Calif.). Current was applied ([…], 260 V) using a Bio-Rad Electroporator device and the cells were transferred to a T-180 flask (Corning). Expression was allowed to proceed for 72 hrs.
Membranes were prepared from transfected cells following dissociation in enzyme-free dissociation solution (Specialty Media, Lavallette, N.J.) by disruption in a Dounce homogenizer in ice-cold membrane buffer (10 mM Tris, pH 7.4, 10 mM PMSF, […], and […]). After a low speed (1100×g for 10 min. at 4° C.) and a high speed centrifugation (38,700×g for 15 min. at 4° C.), membranes were resuspended in buffer and protein concentration determined (Bio-Rad assay kit). Binding of ^125I-human or porcine galanin (specific activity of 2200 Ci/mmol, DuPont NEN) was measured in membranes using a buffer of 25 mM Tris pH 7.4, 0.5% BSA, 2 mM MgCl2, 40 μg/ml bacitracin, 4 mg/ml phosphoramidon, and 10 μM leupeptin in a total volume of 250 ml. 70 μM ^125I-human or porcine galanin was used. Transfected cells expressing plasmid GALR3—3 were bound with ^125I-human galanin whereas cells expressing plasmid GALR3-2 were bound with ^125I-porcine galanin. Reactions were initiated by the addition of membranes and the incubation was allowed to proceed at room temperature for 1 hour. Non-specific binding was defined as the amount of radioactivity remaining bound in the presence of 1 mM respectively unlabeled galanin and was generally not above 200 cpm (<10% of total radioactivity bound). Titration of membrane protein from 1 to 50 μg was conducted. In competition studies various concentrations of unlabeled human or porcine galanin were included along with ^125I-porcine galanin (70 pM) in cells expressing the GALR3-2 plasmid. Incubations were terminated by rapid filtration through GF/C filters which had been presoaked with 0.1% polyethylamine using a TOMTEC (Orange, Conn.) cell harvester. The results were analyzed using the Prism software package (GraphPad, San Diego, Calif.). The table below illustrates that both clones confer specific binding to COS-7 cells for both human and porcine galanin radioligands as a function of protein concentration. In COS-7 cells mock transfected with expression vector only (no GALR3 gene), no specific binding of either radioligand was observed.

human GALR3 [2] = test: Competition for ^125I-porcine galanin binding to membranes of COS-7 cells expressing clone GALR3-2; conditions: clone GALR3-2, COS-7 membranes, ^125I-porcine galanin (70 pM), FIG. 7
Experimental: as §1
Membranes were prepared from transfected cells following dissociation in enzyme-free dissociation solution (Specialty Media, Lavallette, N.J.) by disruption in a Dounce homogenizer in ice-cold membrane buffer (10 mM Tris, pH 7.4, 10 mM PMSF, […], and […]). After a low speed (1100×g for 10 min. at 4° C.) and a high speed centrifugation (38,700×g for 15 min. at 4° C.), membranes were resuspended in buffer and protein concentration determined (Bio-Rad assay kit). […] Reactions were initiated by the addition of membranes and the incubation was allowed to proceed at room temperature for 1 hour. […] Titration of membrane protein from 1 to 50 μg was conducted. […] Incubations were terminated by rapid filtration through GF/C filters which had been presoaked with 0.1% polyethylamine using a TOMTEC (Orange, Conn.) cell harvester. The results were analyzed using the Prism software package (GraphPad, San Diego, Calif.).

For Gal(1-16), the “times more active than pGAL(3-29) as an inhibitor of ^125I-porcine galanin binding” value (GALR1) is listed as “at least 1000 times”.
With ^125I-porcine galanin the “Specific binding of radioligand” value (human GALR3 [1]; Clone GALR3-2, membrane protein 5 μg) was 695 cpm, the “Specific binding of radioligand” value (human GALR3 [1]; Clone GALR3-2, membrane protein 10 μg) was 1134 cpm and the “Specific binding of radioligand” value (human GALR3 [1]; Clone GALR3-2, membrane protein 20 μg) was 1763 cpm. For the same substance, the “Specific binding of radioligand” value (human GALR3 [1]; Clone GALR3-2, membrane protein 50 μg) was 3728 cpm.
With porcine galanin the IC50 (human GALR3 [2]) was 16 nM.
